Measured values reported in ChEMBL document CHEMBL1151751, “Bisphosphonate inhibition of a Plasmodium farnesyl diphosphate synthase and a general method for predicting cell-based activity from enzyme data” (J Med Chem, 2008).

Assay: Inhibition of Plasmodium vivax FPPS expressed in Escherichia coli BL21 by spectrophotometric assay
In short: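 Recombinant enzyme from lysed cells (lysozyme, nuclease, protease inhibitors), purified on Ni-NTA resin. The GPP + IPP condensation was followed at room temperature by a continuous spectrophotometric phosphate-release assay in 25 mM Hepes, 2.5 mM MgCl₂, pH 7.4. Inhibitors were preincubated with enzyme for 30 min at room temperature. IC50 was obtained by fitting the dose–response curve.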

pIC50	Structure (SMILES)	IC50
–	O.O=P(O)(O)C(O)(Cn1ccnc1)P(=O)(O)O [ZOLEDRONIC ACID]	790 nM
6.2	O=P([O-])(O)C(O)(CC1=[n+]2ccccc2=NC1)P(=O)(O)O (stereo not drawn)	640 nM
